Screening results (PubChem BioAssay)
ClpP mod = qHTS Assay for Activators of ClpP; ATP-dependent Clp protease proteolytic subunit (Bacillus subtilis (strain 168)), P80244; AID 651965, 2013; Potency, µM (titrated, usually from 57.5 µM); purified B. subtilis ClpP, FRET peptide cleavage, 20 min; 1.9% of 340,000 active; active = well fitted falling curve with a large enough effect; inconclusive = small, poorly fitted or top-dose-only effect; inactive = no such curve, though single readings can be large or run the other way; note: the source files actives as falling curves though it sought activators and does not explain the sign; nearly all actives have a fitted effect of over 65% in size
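Purified B. subtilis ClpP, 10 microg/mL final in Tris/HCl pH8 with KCl, BSA, glycerol and Tween-20, cleaved an Abz/nitrotyrosine-quenched decapeptide. Fluorescence (ex 320, em 430) was read at 0 and 20 min at room temperature. Delta was normalized to 5.8 microM ADEP and DMSO/no-enzyme controls.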
TCR activator = activators of T cell receptors; primary human leukocytes, anti-CD3, IL-2 HTRF, 48 h; Potency, µM (titrated, usually from 9.22 µM), hits mostly activators; 330,000 tested, under 10 active; AID 504894
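IL-2 release read by HTRF sandwich (Eu cryptate donor, d2 acceptor, 665 nm emission) after 48 hr exposure of primary human leukocytes to compound together with anti-CD3 beads in the absence of co-stimulatory signals.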
Nrf2 activator = Nrf2 pathway activation. Potency, µM (doses to about 46.1 µM), usual class: activators. AREc32 ARE-luciferase reporter (MCF7-derived line), luminescence, 24 h. 0.31% of 410,000 active; note: nearly all actives have a fitted effect of over 65% in size
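Quantitative high-throughput format: AREc32 reporter cells, 1000 per well, received compound by pin transfer and were incubated 24 hr at 37 deg C, 5% CO2, before Steady-Glo luminescence detection.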
miR-21 reporter = miR-21 reporter, rising signal | HeLa miR-21 FLuc reporter, luciferase, 48 h | Potency, µM (top dose mostly 38.3 µM) | 340,000 tested, under 10 active | AID 2288; active = well fitted rising curve with a large enough effect; inconclusive = small, poorly fitted or top-dose-only effect; inactive = no such curve, though single readings can be large or run the other way;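 further: miR-21 action dims this reporter so a rising signal means less miR-21 action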
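Luminescence from a firefly luciferase reporter carrying a miR-21 binding site downstream, stably expressed under a CMV promoter in HeLa cells that make miR-21 endogenously, reports miRNA modulation after 48 h compound exposure up to approximately 40uM final.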
Nrf2 block = inhibitors of Nrf2 signaling; Potency, µM (highest dose often 46 µM), hits mostly inhibitors; 2.1% of 360,000 active; A549 ARE-Fluc reporter, luciferase luminescence, 18-24 h; note: nearly all actives have a fitted effect of over 60% in size
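In this cell-based qHTS, ARE-driven firefly luciferase in A549 cells reports Nrf2 activity; the luminescent signal after BugLite lysis is the measured value, with a prior CellTiter-Fluor read for cell health.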
A549 tox = counter-screen for Nrf2 inhibitors: cytotoxicity in A549 cells; A549 ARE-Fluc cells, CellTiter-Fluor viability, 18-24 h; Potency, µM (titrated, usually from 46 µM), hits mostly inhibitors; 0.16% of 390,000 active; AID 504648
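A549 ARE-Fluc cells in 5% FBS OPTI-MEM, 5000 cells/well, rested 2 h then exposed to compounds in concentration-response for 18-24 h at 37 °C. Viability by CellTiter-Fluor fluorescence (Ex 405/Em 525) after 30 min; luciferase luminescence (BugLite, 15 min, RT) read afterwards.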
Each line names hits and unclear results; the compound was inactive in the other large screens. Shown are actives, neighbours in structure and some others; about 3.7% of the full set was active somewhere. Unless noted, calls come from the whole dose curve; as a rule, active = well fitted curve in the direction sought with a large enough effect; inconclusive = small, poorly fitted or top-dose-only effect, or another doubt; inactive = no such curve, though single readings can be large; an effect the other way counts as inactive or inconclusive.

CO[C@H]1/C=C\O[C@@]2(C)Oc3c(C)c(O)c4c(O)c(c(C=NN5CCN(C6CCCC6)CC5)c(O)c4c3C2=O)NC(=O)C(C)=CC=C[C@H](C)[C@H](O)[C@@H](C)[C@@H](O)[C@@H](C)[C@H](OC(C)=O)[C@H]1C	none (no result: TCR activator, Nrf2 activator, miR-21 reporter, Nrf2 block, A549 tox)
C=CCn1c(SCC(=O)N2c3ccccc3Sc3ccccc32)nnc1-c1ccco1	none (no result: ClpP mod)
CCn1c(SCC(=O)N2c3ccccc3Sc3ccccc32)nnc1-c1ccco1	Nrf2 block 23µM (no result: TCR activator)
Cc1ccc([N+](=O)[O-])c(Oc2ncnc3c2oc2ccccc23)c1	none (no result: TCR activator, Nrf2 block)
Cc1ccc(CC(=O)NCc2nc(-c3cccc(C)c3)no2)cc1	none (no result: TCR activator)
CCN(CC)CCCNC(=O)c1nn(-c2ccc(OC)c(Cl)c2)c(=O)c2c1c1ccccc1n2C	none (no result: TCR activator)
Cc1nn(-c2ccccn2)c2nc(-c3cccs3)cc(C(=O)NCc3ccco3)c12	ClpP mod 13µM, Nrf2 block inconclusive
CCOC(=O)c1cc(-c2cccs2)nc2c1c(C)nn2-c1ccccn1	Nrf2 block 23µM (no result: ClpP mod)
O=C(CCS(=O)(=O)Cc1ccccc1)Nc1ncc([N+](=O)[O-])s1	Nrf2 activator 13µM, Nrf2 block inconclusive
Cc1cc(Cl)ccc1NC(=O)Cn1nc(C)c2c(C)n(-c3ccccc3)nc2c1=O	Nrf2 block inconclusive (no result: TCR activator)
CCOCCCn1c(SCC(=O)NCc2ccccc2)nc2c(sc3ccccc32)c1=O	none (no result: TCR activator, Nrf2 block)
Cc1cc(C)cc(NS(=O)(=O)c2ccc3[nH]cc(C(=O)NCc4ccccc4Cl)c(=O)c3c2)c1	none (no result: TCR activator, Nrf2 block)
Cc1cc(C)cc(NS(=O)(=O)c2ccc3[nH]cc(C(=O)NCc4ccco4)c(=O)c3c2)c1	ClpP mod inconclusive, miR-21 reporter inconclusive, Nrf2 block 16µM
CC(C)c1ccc(NS(=O)(=O)c2ccc3[nH]cc(C(=O)NC4CCCCC4)c(=O)c3c2)cc1	none (no result: TCR activator)
Cc1cc(C)cc(NS(=O)(=O)c2ccc3[nH]cc(C(=O)NC4CCCCC4)c(=O)c3c2)c1	miR-21 reporter inconclusive, Nrf2 block 23µM (no result: TCR activator)
Cc1ccc(-c2noc(CN(C(=O)COc3cc(C)cc(C)c3C)C(C)C)n2)cc1	none (no result: TCR activator)
Cc1cc(/C=C(\C#N)C(=O)Nc2ccc(F)cc2)c(C)n1-c1ccc(N2CCOCC2)c([N+](=O)[O-])c1	Nrf2 block inconclusive
COc1ccc(NC(=O)/C(C#N)=C/c2cc(C)n(-c3ccc(N4CCOCC4)c([N+](=O)[O-])c3)c2C)cc1	Nrf2 block 6.5µM
CCC1Oc2ccc(C)cc2N(CC(=O)NCc2ccc(OC)cc2)C1=O (stereo unspecified)	none (no result: TCR activator)
CCCS(=O)(=O)c1ncc(Cl)c(C(=O)Nc2sc3c(c2C(=O)NCC)CCCC3)n1	none (no result: TCR activator, Nrf2 activator, miR-21 reporter, Nrf2 block, A549 tox)
CCOc1ccccc1N1CCN(C/C=C/c2ccc(N(C)C)cc2)CC1	ClpP mod 28µM
Cc1ccc(CNC(=O)/C=C/[C@H]2O[C@@H](n3cc(C)c(=O)[nH]c3=O)C[C@@H]2O)o1	none (no result: TCR activator, miR-21 reporter, Nrf2 block, A549 tox)
COc1ccc(NS(=O)(=O)c2ccc(N/N=C(\C)c3ccncc3)c([N+](=O)[O-])c2)cc1	Nrf2 block 21µM, A549 tox inconclusive
O=C(c1cnc2c(c1)COc1ccccc1-2)c1ccccc1O	none (no result: TCR activator)
O=C(O)c1c(Cl)c(Cl)c(Cl)c(Cl)c1C(=O)N1CCCCCC1	ClpP mod 32µM
CCN(CC)c1ncnc2c1ncn2[C@H]1CN(Cc2cc(OC)c(OC)c(OC)c2)C[C@@H](CO)O1	none (no result: TCR activator, miR-21 reporter, Nrf2 block, A549 tox)
Cc1cc(C(=O)C(C)OC(=O)C2=NNC(=O)CC2)c(C)n1-c1ccc(OC(F)F)cc1 (stereo unspecified)	ClpP mod 20µM
COc1cccc(C(O)c2nc(-c3cccc(CO)c3)cs2)c1 (stereo unspecified)	none (no result: TCR activator, miR-21 reporter, Nrf2 block, A549 tox)
COc1ccc(-c2n(CC(=O)OC3CC(C)CCC3C(C)C)c3ccccc3[n+]2C)cc1 (stereo unspecified)	Nrf2 block 21µM, A549 tox inconclusive (no result: ClpP mod)
CNc1sc(C(=O)c2ccc(F)cc2)c(N)c1-c1nc2ccccc2s1	Nrf2 activator 11µM
CNc1sc(C(=O)c2cccs2)c(N)c1-c1nc2ccccc2s1	Nrf2 activator inconclusive, Nrf2 block inconclusive
CC1CCN(S(=O)(=O)c2ccc3c(c2)N(CC(=O)NCCCN2C(C)CCCC2C)C(=O)CO3)CC1 (stereo unspecified)	none
Cc1nc(-c2cn[nH]c2)c2cc(C)oc2n1	ClpP mod 28µM
Cc1nnc(SCCN2CCOCC2)c2nn(-c3ccccc3F)c(C)c12	ClpP mod 14µM
Cc1nnc(Cl)c2nn(-c3ccccc3F)c(C)c12	ClpP mod 28µM
Cn1c2ccccc2c2nnc(SCCN3CCOCC3)nc21	none
Cc1n[nH]c(=S)c2nn(-c3ccccc3F)c(C)c12	none
CCCc1cc(N2CCN(c3ccccc3)CC2)n2cnnc2n1	Nrf2 block inconclusive (no result: TCR activator)
CCCc1cc(N2CCN(c3ccccc3F)CC2)n2cnnc2n1	miR-21 reporter inconclusive, Nrf2 block 16µM (no result: TCR activator)
CCCCn1nc(C(=O)N(C)CC(=O)Nc2ccc(F)c(F)c2F)ccc1=O	none (no result: miR-21 reporter)
COc1cc(C2C(C#N)=C(N)N(Nc3ccccc3)C3=C2C(=O)CC(C)(C)C3)ccc1OCc1ccccc1 (stereo unspecified)	Nrf2 block 23µM, A549 tox inconclusive
C[N+]1(CC(=O)c2ccc3ccccc3c2)CCOCC1	none (no result: TCR activator, Nrf2 activator, miR-21 reporter, Nrf2 block, A549 tox)
CCN(CC)c1ccc(/C=N/NC(=O)c2c[nH]c3ccccc23)cc1	ClpP mod 32µM, A549 tox inconclusive
CCCN(CC(=O)Nc1ccc(Cl)cc1Cl)C(=O)/C=C/c1ccco1	Nrf2 activator 11µM
COc1ccc(S(=O)(=O)NCCc2sc(C)nc2C)cc1F	none (no result: TCR activator, Nrf2 block)
CCc1ccc(NC(=O)C(=O)NNC(=O)c2ccc(OC)cc2)cc1	none (no result: ClpP mod)
CCc1ccc(C(=O)NNC(=O)OC)cc1	ClpP mod 14µM
O=C(Cn1ncc2ccccc2c1=O)Nc1cccc(C(F)(F)F)c1	none (no result: TCR activator, miR-21 reporter, Nrf2 block, A549 tox)
CCC(=O)N1CCc2cc(S(=O)(=O)Nc3ccc4c(c3)OCCO4)ccc21	Nrf2 block 21µM
CCOC(=O)c1ccc(NS(=O)(=O)c2ccc3c(c2)CCCN3C(C)=O)cc1	Nrf2 block inconclusive
CCOC(=O)c1ccc(NS(=O)(=O)c2ccc3c(c2)CCN3C(=O)CC)cc1	Nrf2 block 26µM (no result: TCR activator)
COc1cccc(S(=O)(=O)Nc2ccc3c(c2)OCCO3)c1	ClpP mod 14µM (no result: TCR activator)
CCOC(=O)C1CCCN(S(=O)(=O)c2ccc3c(c2)CCN3C(=O)CC)C1 (stereo unspecified)	Nrf2 block 9.2µM (no result: TCR activator)
Cc1cccc(S(=O)(=O)Nc2ccc3c(c2)OCCO3)c1	none
